System: C. pneumoniae
Assay: Rabbit model of atherosclerosis accelerated by C. pneumoniae infection, cholesterol diet
Details: infected rabbits

SMILES: CO[C@H]1/C=C/O[C@@]2(C)Oc3c(C)c(O)c4c(=O)c(c5oc6cc(N7CCN(CC(C)C)CC7)cc(O)c6nc-5c4c3C2=O)NC(=O)/C(C)=C\C=C\[C@H](C)[C@H](O)[C@@H](C)[C@@H](O)[C@@H](C)[C@H](OC(C)=O)[C@@H]1C [rifalazil, 3′-hydroxy-5′-(4-isobutyl-1-piperazinyl) benzoxazinorifamycin]
- infectious burden of Chlamydia in the vasculature (rifalazil p<0.001, azithromycin p=0.005): reduced the infectious burden of Chlamydia in the vasculature
- plaque area stenosis compared with placebo-treated animals (text p=0.08 rifalazil, p=0.94 azithromycin): trended towards producing significantly reduced plaque area stenosis

— patent US20070112018A1, “Treatment of peripheral arterial occlusive disease” (priority 2005, published 2007)
